Reference: publication PMC4492447 (Journal of medicinal chemistry, 2012)

Amino acid sequences for entries named in this document (tags omitted).
UniProt P21554, whole entry: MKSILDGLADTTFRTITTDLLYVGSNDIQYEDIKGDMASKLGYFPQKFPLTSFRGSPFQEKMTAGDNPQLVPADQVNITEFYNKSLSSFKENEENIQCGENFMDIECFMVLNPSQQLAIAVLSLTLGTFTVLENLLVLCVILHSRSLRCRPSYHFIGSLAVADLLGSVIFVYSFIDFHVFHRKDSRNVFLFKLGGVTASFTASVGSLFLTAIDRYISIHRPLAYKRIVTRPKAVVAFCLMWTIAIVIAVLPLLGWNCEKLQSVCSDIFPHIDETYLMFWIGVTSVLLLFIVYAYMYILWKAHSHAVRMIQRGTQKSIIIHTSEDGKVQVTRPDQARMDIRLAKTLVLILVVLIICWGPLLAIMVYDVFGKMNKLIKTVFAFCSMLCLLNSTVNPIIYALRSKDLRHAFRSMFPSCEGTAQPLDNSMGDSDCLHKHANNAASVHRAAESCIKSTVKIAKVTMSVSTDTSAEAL

Key:
CB1 [1] = biological target: T1, CB1 (Homo sapiens, UniProt P21554); type: cell-based
CB1 [2] = biological target: T1, CB1; type: binding; conditions: selectivity, [3H]CP55940 displacement

Compound `Clc1ccc(-n2c(-c3ccccc3Cl)nc3c(N[C@@H]4CCCNC4)ncnc32)cc1` [Compound 15b, 8-(2-Chlorophenyl)-9-(4-chlorophenyl)-N-[(3R)-piperidin-3-yl]-9H-purin-6-amine] has a Kb (CB1 [1]) of 5.55 µM.

`CC(C)(C)OC(=O)N1CCC[C@H](Nc2ncnc3c2nc(-c2ccccc2Cl)n3-c2ccc(Cl)cc2)C1` [Compound 16a, tert-Butyl (3S)-3-{[8-(2-chlorophenyl)-9-(4-chlorophenyl)-9H-purin-6-yl]amino}piperidine-1-carboxylate] gave a Kb (CB1 [1]) of 3.93 µM.

`CC(C)(C)OC(=O)N1CCC[C@@H](Nc2ncnc3c2nc(-c2ccccc2Cl)n3-c2ccc(Cl)cc2)C1` [Compound 15a, tert-Butyl (3R)-3-{[8-(2-chlorophenyl)-9-(4-chlorophenyl)-9H-purin-6-yl]amino}piperidine-1-carboxylate] showed a Kb (CB1 [1]) of 0.326 µM.

In the case of `Clc1ccc(-n2c(-c3ccccc3Cl)nc3c(N[C@H]4CCCNC4)ncnc32)cc1` [Compound 16b, 8-(2-Chlorophenyl)-9-(4-chlorophenyl)-N-[(3S)-piperidin-3-yl]-9H-purin-6-amine], the Kb (CB1 [1]) was 8.41 µM.

In the case of `CCCCNC(=O)NC1(c2ccccc2)CCN(c2ncnc3c2nc(-c2ccccc2Cl)n3-c2ccc(Cl)cc2)CC1` [Compound 13e, 3-Butyl-1-{1-[8-(2-chlorophenyl)-9-(4-chlorophenyl)-9H-purin-6-yl]-4-phenylpiperidin-4-yl}urea], the “CB2/CB1 Ki ratio” value (CB1 [2]) was 74 and >74.

Values joined by “and” are separate entries in the source; they are usually repeats but may differ in a detail not shown here. Identical values can stand only once.
